Data taken from patent publication US20040057976A1, “Insect bait” (priority 2002, published 2004).

System: T. Albipes adults
Conditions: first trial; 3 days exposure; non-forced bioassay; means of 5 replicates
Source text: White-footed ants were collected from a stand of Phoenix roebelenii palms at the University of Florida Fort Lauderdale Research and Education Center (Broward Co., FL). Adult ants and brood were collected from nesting sites in palm thatch between 9 a.m. and 3 p.m., when most of the foragers are in the nests. The thatch was placed in a plastic 100-liter garbage pail through a 28-cm hole cut into the center of its lid. The upper portions of the interior sides of the pail were coated with a petroleum jelly (Vaseline® London, UK) to retard the ants' escape.
Infested thatch material was taken from the garbage pail, placed in the container, covered with 1×15-cm strips of wood and a separator sheet of 3-mm polycarbonate with 2-mm holes. Dripping water from a 2-1 tank suspended over the container forced the ants to leave the thatch and enter nesting tubes (10×75 mm clear polystyrene test tubes) (Fisher Scientific, Pittsburgh, Pa.), filled at the bottom with a small cotton ball soaked with sugar water, and completely covered with aluminum foil.
Nalgene™ reusable plastic utility boxes with lids ([…]) (Fisher Scientific, Pittsburgh, Pa.) were used to hold white-footed ant colonies for laboratory tests (FIG. 4). Nesting tubes with about 200 ants and dozens of brood were placed into each box, held in place with a small amount of Handi-Tak®. […]

O=[N+]([O-])NC1=NCCN1Cc1ccc(Cl)nc1 [Imidacloprid]
Mean percent Mortality (+/SD) of T. Albipes adults: 14.06 ± 7.40b %
